Experimental data: article PMC9117644, “FAS2FURIOUS: Moderate-Throughput Secreted Expression of Difficult Recombinant Proteins in Drosophila S2 Cells” (Frontiers in Bioengineering and Biotechnology, 2022)

Target: T1, human TLR4 ectodomain (S2-derived) (human, UniProt O00206 23-629)
T1 construct: human toll-like receptor 4 ectodomain, UniProtKB O00206, P23-M629, Drosophila codon-optimized; Cloned into pExpreS2-1-CRPA (Addgene #175445): N-terminal BiP signal peptide for secretion, C-terminal thrombin-cleavable Protein A tag; a few residues of the thrombin site probably remain after cleavage; also called toll-like receptor 4; Drosophila-derived TLR4; source: purified (IgG Sepharose, …)
Experiment: ELISA; 1 µg/ml FBG-C coated overnight on the plate, blocked with 10% BSA in PBST; concentration series of TLR4 in PBST + 2% BSA, 2 h at 37°C; TLR4 detected with an anti-TLR4 primary and HRP secondary antibody, TMB, OD450; single biological replicate
Details: both partners purified

- binding result: binds
B1: C-terminal fibrinogen-like globe domain of human tenascin C (domain or fragment, UniProt P24821 1974-2201, looked up)
chain: IGLLYPFPKDCSQAMLNGDTTSGLYTIYLNGDKAEALEVFCDMTSDGGGWIVFLRRKNGRENFYQNWKAYAAGFGDRREEFWLGLDNLNKITAQGQYELRVDLRDHGETAFAVYDKFSVGDAKTRYKLKVEGYSGTAGDSMAYHNGRSFSTFDKDTDSAITNCALSYKGAFWYRNCHRVNLMGRYGDNNHSQGVNWFHWKGHEHSIQFAEMKLRPSNFRNLEGRRKRA
notes: human tenascin C, fibrinogen-like globe domain, UniProtKB P24821 Isoform 1, I1974-A2201; Vector pNIC-NHStIIT; two disulfide bonds confirmed by intact mass spectrometry; also called FBG-C; source: E. coli BL21 (DE3) Tuner + CyDisCo pMJS226, purified (StrepTactinXT, TEV, SEC on Superdex 75); not shown: His6, N-terminal, cleaved; Twin-Strep-tag, N-terminal, cleaved
